Six compounds from PubChem BioAssay AID1745853 (National Center for Advancing Translational Sciences (NCATS), 2022) can be followed below.

The structures appear in SMILES notation. This is a selection; strong and weak results do not stand in their true shares. Results filed as inconclusive are left out. The source made the active and inactive calls. The rule behind the calls is not given here.
% is set by controls: 0 for no effect and ±100 for the full control effect.

In this experiment the target is Catechol O-methyltransferase (Homo sapiens) (UniProt P21964). Briefly: Primary Screen for Target Class Profiling of Small Molecule Inhibitors of Methyltransferases. Conditions: purified enzyme, MTase-Glo SAH luminescence; at 40 µM; stronger effect = lower value. The text has this:
PI: Matthew D. Hall Ph.D. and Quinlin M. Hanson Ph.D.
National Center for Advancing Translational Sciences (NCATS)
National Institute of Health (NIH), Rockville, MD
Target class profiling (TCP) is a chemical biology approach amenable to investigating understudied biological targets. TCP is achieved by developing a generalizable assay platform and applying it to screen a curated set of compound libraries against representative members of a target class. Small molecule methyltransferases (SMMTase) are a subclass of methyltransferase that act on metabolites to modulate signaling pathways, metabolize xenobiotics, or balance the available methyl pool. We screened four curated libraries totaling 27,574 unique compounds against the SMMTases nicotinamide N-methyltransferase (NNMT), phenylethanolamine N-methyltransferase (PNMT), histamine N-methyltransferase (HNMT), glycine N-methyltransferase (GNMT), catechol O-methyltransferase (COMT), and guanidinoacetate N-methyltransferase (GAMT). The data generated by this TCP can be leveraged for informed tool molecule development. For example, in the associated publication we identified a chemotype of HNMT-selective inhibitors. Additionally, we identified a putative SMMTase-selective inhibitor with potential as a tool molecule for studying broader methyltransferase biology.
High-through put screening assays were developed at the National Center for Advancing Translational Science (NCATS) for the enzymes NNMT, PNMT, HNMT, GNMT, COMT, and GAMT. Enzymatic activity was measured as a function of SAM cofactor conversion using the MTase Glo kit (Promega) for all enzymes. All assays were performed in 1536-well format with substrates and SAM concentrations at KM values. Enzyme concentration and assay timing were optimized for 10-20% SAM conversion. Initial screening of 27,574 compounds was done as single-point assays using the highest compound concentration (40 uM). […] These compounds were replated in 11-point dose response and assayed against NNMT, PNMT, HNMT, GNMT, COMT, GAMT, and a counter-assay. The IC50 and efficacy (maximal response) values were determined for each dose-response curve. These values are also accounted for in the area under the curve (AUC) values.
PROTOCOL TABLE (as described by Inglese J, Shamu CE and Guy RK. 2007)
SEQUENCE No. (e.g., 1, 2, 3, etc.); […] (e.g., Cells, Incubation, Reagent, etc.); VALUE; DESCRIPTION.
1; Reagent; 2 uL; SMMTase Enzyme (2x) in reaction buffer, columns 1- 48.
2; Reagent; 1 uL; SAM (4x) in reaction buffer, columns 1-48.
3; Controls; 23 nL; DMSO in column 4; sinefungin in DMSO (0 uM - 40 uM) in 7-point 1:2 dilution series (n = 2) in column 2.
4; Compounds; 23 nL; Columns 5-48.
5; Reagent; 1 uL; Substrate (4x) in reaction buffer, columns 2-48.
6; Time; 20-30 min; Incubation.
7; Reagent; 1 uL; MTase-Glo reagent (5X), columns 1-48.
8; Time; 30 min; Incubation.
9; Reagent; 5 uL; MTase-Glo Detection reagent, columns 1-48.
10; Time; 30 min; Incubation, luminescence evolution.
11; Detection; Luminescence; ViewLux uHTS Microplate Imager (PerkinElmer).
NOTES (numbers refer to Sequence numbers above)
1, 2, 5. White Medium Binding Greiner 1536-well plates (Cat #789175-F, Greiner Bio-One, Monroe, NC); Reaction buffer: 50 mM Tris, pH 8.0, 3 mM MgCl2, 1 mM EDTA, 50 mM NaCl, 1 mM DTT, and 0.1 mg/mL BSA. Evaporation was prevented by covering assay plates with metal lids containing holes to allow gas diffusion.
1. Six SMMTase were profiled: HNMT, GNMT, PNMT, COMT, NNMT, GAMT
5. The corresponding substrate was used for each enzyme: HNMT - 5.3 uM Histamine; GNMT - >500 uM Glycine; PNMT - 16.2 uM Norephinephrine; COMT - 13.7 uM Norephinephrine; NNMT - 3.8 uM Nicotinamide; GAMT - 2.5 uM Guanidinoacetate.6, 8, 10. Room temperature
6. Final reaction conditions: 10 nM COMT, 5 uM SAM, 15 uM norepinephrine, 50 mM Tris, pH 8.0, 3 mM MgCl2, 1 mM EDTA, 50 mM NaCl, 1 mM DTT, and 0.1 mg/mL BSA; refer to tables 2 and S1 for specific timing.
8. […]
As to `CN(C(=O)Cc1ccc(Cl)c(Cl)c1)[C@@H]1CC[C@]2(CCCO2)C[C@H]1N1CCCC1`, the activity change, negative = inhibition was inactive: 5.69%.
With `CN(C(=O)Cc1ccccc1)[C@@H]1CC[C@]2(CCCO2)C[C@H]1N1CCCC1`, the activity change, negative = inhibition was inactive: 1.02%.
Take `CCn1c(=O)n([C@@H]2CCN(CC3CCCCCCC3)C[C@H]2CO)c2ccccc21`: the activity change, negative = inhibition was inactive: -0.966%.
As to `O=C(O[C@H]1CN2CCC1CC2)C1NCc2ccccc2[C@@H]1c1ccccc1` (stereo partly specified), the activity change, negative = inhibition was inactive: -9.17%.
Turning to `N[C@@H](Cc1ccc([N+]([O-])(CCCl)CCCl)cc1)C(=O)O`, the activity change, negative = inhibition is active: -60.1%.
Take `CN(C)C1(c2ccccc2)CCC2(CC1)OCCc1c2[nH]c2ccc(F)cc12` (stereo unspecified): the activity change, negative = inhibition is inactive: 1.45%.
